Source: ChEMBL document CHEMBL5500402, “Potent, Selective Agonists for the Cannabinoid-like Orphan G Protein-Coupled Receptor GPR18: A Promising Drug Target for Cancer and Immunity” (J Med Chem, 2024)

Protein sequences, listed by entry. Tags and fused reporters are not part of them.
UniProt P34972, whole entry: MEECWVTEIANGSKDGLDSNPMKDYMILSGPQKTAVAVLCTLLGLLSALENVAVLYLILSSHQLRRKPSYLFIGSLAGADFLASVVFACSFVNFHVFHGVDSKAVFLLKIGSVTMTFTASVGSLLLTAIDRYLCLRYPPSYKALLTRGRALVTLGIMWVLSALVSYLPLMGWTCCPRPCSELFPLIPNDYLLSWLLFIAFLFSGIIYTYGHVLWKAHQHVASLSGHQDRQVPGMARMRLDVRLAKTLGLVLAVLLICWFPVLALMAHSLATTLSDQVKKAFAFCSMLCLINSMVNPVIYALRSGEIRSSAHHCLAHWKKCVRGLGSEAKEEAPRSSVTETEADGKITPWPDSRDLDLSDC
UniProt P21554, whole entry: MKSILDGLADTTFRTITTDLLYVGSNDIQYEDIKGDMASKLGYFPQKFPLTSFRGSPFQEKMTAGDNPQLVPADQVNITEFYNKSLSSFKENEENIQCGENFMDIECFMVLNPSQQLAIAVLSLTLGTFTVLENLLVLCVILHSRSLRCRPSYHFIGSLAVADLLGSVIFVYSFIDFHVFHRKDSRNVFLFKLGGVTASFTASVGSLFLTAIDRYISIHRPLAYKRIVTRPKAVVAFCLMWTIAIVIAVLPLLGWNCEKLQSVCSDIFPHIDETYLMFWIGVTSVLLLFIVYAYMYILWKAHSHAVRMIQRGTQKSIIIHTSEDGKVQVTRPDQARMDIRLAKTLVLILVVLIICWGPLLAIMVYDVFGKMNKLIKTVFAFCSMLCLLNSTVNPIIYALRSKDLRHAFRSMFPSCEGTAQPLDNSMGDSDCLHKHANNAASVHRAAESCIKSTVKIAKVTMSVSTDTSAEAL
UniProt P32249, whole entry: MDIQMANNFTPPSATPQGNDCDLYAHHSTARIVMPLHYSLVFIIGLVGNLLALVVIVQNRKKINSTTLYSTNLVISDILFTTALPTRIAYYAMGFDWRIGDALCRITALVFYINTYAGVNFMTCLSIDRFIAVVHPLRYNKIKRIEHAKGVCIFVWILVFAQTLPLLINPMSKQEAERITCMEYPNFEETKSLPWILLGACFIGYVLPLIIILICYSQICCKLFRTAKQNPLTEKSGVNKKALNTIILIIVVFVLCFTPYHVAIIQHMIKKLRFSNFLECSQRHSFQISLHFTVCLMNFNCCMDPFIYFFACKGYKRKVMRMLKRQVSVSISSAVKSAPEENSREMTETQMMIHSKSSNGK

Assays:
[1] = biological target: Cannabinoid receptor 2 (Homo sapiens, UniProt P34972); experiment: Displacement of [3H]-CP55940 from human CB2 receptor expressed in CHO cells assessed as maximal displacement by radioligand competition binding assay; format: cell-based
[2] = biological target: Cannabinoid receptor 1 (Homo sapiens, UniProt P21554); experiment: Displacement of [3H]-CP55940 from human CB1 receptor expressed in CHO cells assessed as maximal displacement by radioligand competition binding assay relative to control; format: cell-based
[3] = biological target: T1, N-arachidonyl glycine receptor (Homo sapiens) (UniProt Q14330); experiment: Agonist activity at human GPR18-eYFP and Renilla luc expressed in CHO cells assessed as beta-arrestin2 recruitment by BRET/beta-arrestin2 enzyme complementation assay; format: functional, cell-based; conditions: filed as agonist
T1 sequence (whole entry): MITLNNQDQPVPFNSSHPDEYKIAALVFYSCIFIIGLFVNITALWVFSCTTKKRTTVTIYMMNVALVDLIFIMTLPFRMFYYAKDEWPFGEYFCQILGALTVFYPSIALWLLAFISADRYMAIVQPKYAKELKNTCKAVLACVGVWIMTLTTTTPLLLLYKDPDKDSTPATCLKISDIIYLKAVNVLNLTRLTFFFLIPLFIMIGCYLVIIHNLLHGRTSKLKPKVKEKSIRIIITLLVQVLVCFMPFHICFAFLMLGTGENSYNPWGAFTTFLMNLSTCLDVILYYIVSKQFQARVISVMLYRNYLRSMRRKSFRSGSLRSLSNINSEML

[4] = biological target: T2, G-protein coupled receptor 183 (Homo sapiens, UniProt P32249); experiment: Agonist activity at human GPR183 expressed in PathHunter CHO-K1 cells assessed as activation by measuring beta-arrestin2 recruitment at 10 uM relative to control; format: functional, cell-based
[5] = biological target: T2, G-protein coupled receptor 183; experiment: Agonist activity at human GPR183 expressed in PathHunter CHO-K1 cells assessed as activation by measuring beta-arrestin2 recruitment at 30 uM relative to control; format: functional, cell-based

Activity [1] [%]	Activity [2] [%]	Activity [3]	Activity [4] [%]	Activity [5] [%]	SMILES
87	55				Cc1ccc(Cn2c(NCCc3c[nH]c4ccccc34)nc3c2c(=O)n(C)c(=O)n3C)cc1
		Dose-Dependent Effect	1	3	Cn1c(=O)c2c(nc(NCCc3c[nH]c4ccccc34)n2Cc2ccc(Cl)cc2)n(C)c1=O
